The results in this text go back to ChEMBL document CHEMBL2057089, “Design and synthesis of novel p38α MAP kinase inhibitors: discovery of pyrazole-benzyl ureas bearing 2-molpholinopyrimidine moiety” (Bioorg Med Chem Lett, 2012).

For the test, the system named is Mus musculus. Nature of the test: Antiinflammatory activity in po dosed BALB/c mouse model of endotoxic shock assessed as inhibition of LPS-induced TNFalpha production administered 30 mins before LPS challenge measured after 60 mins by ELISA. The class given is functional.

As for `Cc1ccc(-n2nc(C(C)(C)C)cc2NC(=O)NCc2cc(F)ccc2Oc2ccnc(N3CCOCC3)n2)cc1`, the inhibition entry is “Dose-dependent effect”.
